Experimental data published in ChEMBL document CHEMBL1649161, “Pharmacokinetics of EDP-420 after ascending single oral doses in healthy adult volunteers” (Antimicrob Agents Chemother, 2009).

Assay: clinical
Conditions: human, in vivo, po, 500 mg

CC[C@H]1OC(=O)[C@H](C)[C@@H](O[C@H]2C[C@@](C)(OC)[C@@H](O)[C@H](C)O2)[C@H](C)[C@@H](O[C@@H]2O[C@H](C)C[C@H](N(C)C)[C@H]2O)[C@](C)(O)C[C@@H](C)C(=O)[C@H](C)[C@@H](O)[C@]1(C)O [ERYTHROMYCIN]
half-life: 2 h
